Measured values reported in PubChem BioAssay AID540295 (The Scripps Research Institute Molecular Screening Center, 2011).
The list shows a part of the results, in another mix than the full data. Active and inactive are the calls of the source.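 Rule for the calls: active = inhibition above its plate's cutoff, the mean of tested wells on that plate plus 3 SD (cut at about 29% in these data); inactive = the rest.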

By UniProt entry, the sequences of proteins in these tests, tags left out.
UniProt P32245, whole entry: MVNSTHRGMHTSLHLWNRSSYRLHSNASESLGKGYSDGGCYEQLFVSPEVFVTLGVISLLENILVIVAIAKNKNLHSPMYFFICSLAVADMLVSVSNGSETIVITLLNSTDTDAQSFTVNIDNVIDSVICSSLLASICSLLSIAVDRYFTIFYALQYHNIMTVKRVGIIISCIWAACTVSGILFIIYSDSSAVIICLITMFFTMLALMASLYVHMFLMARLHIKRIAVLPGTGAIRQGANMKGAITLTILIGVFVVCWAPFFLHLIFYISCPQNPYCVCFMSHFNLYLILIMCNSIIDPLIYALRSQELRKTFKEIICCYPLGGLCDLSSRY

Each compound was assayed against Melanocortin receptor 4 (Homo sapiens) (UniProt P32245) (assay: blockers of MC4R Gs-cAMP response – cell-based, TR-FRET, antagonist arm of biased-ligand search, primary screen (AID 540295;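 note: 0% = Melanotan II alone and 100% = Melanotan II plus saturating MCL0020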)). Conditions: MC4R-expressing cells, MTII-stimulated cAMP, LANCE TR-FRET; at 6.5 µM; stronger effect = higher value.
With Cc1ccc(C(=O)OC2CN3CCC2CC3)cc1 (configuration not stated) the inhibition was inactive: 3.27%.
For COc1ccc(OP(C)(=O)Nc2ccccn2)cc1 (configuration not stated), the inhibition was inactive: 11.7%.
